Experimental findings from patent publication US12187720B2, “Compounds for treatment of cancer” (ONCTERNAL THERAPEUTICS, INC., priority 2010, dated 2025) are described below.

The data set can be described thus: Pharmacokinetic study in Sprague-Dawley rats. The conditions noted are these: […] (1h, 2r), 5 mg/kg (5Ha, 5Hc).

Regarding `COc1cc(C(=O)c2csc(-c3ccccc3)n2)cc(OC)c1OC` [1h, (2-Phenyl-thiazol-4-yl)-(3,4,5-trimethoxy-phenyl)-methanone], the “Cmax, IV” value was found to be 3816 ± 509 ng/mL.
